The values below come from article PMC9898191 (Nature chemical biology, 2022).

The test system of assay [1] is entospletinib-resistant MV4-11 cells. Briefly: XTT cell proliferation assay, entospletinib-resistant MV4-11 cells. It counts as cell-based, human. A general note: Formazan colour is commonly taken as a measure of viable cells.
Assay [2] addresses Syk complex with FLT3, ERK1/2 and STAT3/5 in naïve MV4-11 cells (Homo sapiens, UniProt P43405). Briefly: Co-immunoprecipitation with anti-Syk antibody, naïve MV4-11 cells. The format is cell-based. Particulars: 5 μM.
The target of the next assay is Syk in MV4-11 cells (Homo sapiens, UniProt P43405). Kind of assay: WC36B-streptavidin pull down assay with immunoblotting. The format is binding. The note with it: WC36 10 μM, entospletinib 10 μM, ATP 1 mM. On the technique in general: Immunoblotting shows a protein as a band on a membrane.

Molecules are shown by their SMILES.

Regarding `c1cn2cc(-c3ccc4cn[nH]c4c3)nc(Nc3ccc(N4CCOCC4)cc3)c2n1` [entospletinib], the inhibition at 20 µM in assay [1] (Homo sapiens, MV4-11, read-out: Imax of proliferation inhibition (XTT assay)) is not above 50%. Moreover, the “inhibition of proliferation (XTT assay)” value in assay [1] (entospletinib-resistant MV4-11 cells) is “could not effectively suppress the proliferation”. The “scaffolding function of Syk (co-precipitation of FLT3, ERK1/2 and STAT3/5)” value in assay [2] is on record as “little to no effect”. Further, the “competition with WC36B for Syk binding” value at Syk in MV4-11 cells is listed as “only WC36 was able to compete”.
